Experimental data taken from ChEMBL document CHEMBL2046406 (J Med Chem, 2012).

The chains behind the UniProt entries cited, without tags or fusion partners. Where a name states a change or a piece, a line headed by the entry shows the natural chain unless it says otherwise.
UniProt P41145: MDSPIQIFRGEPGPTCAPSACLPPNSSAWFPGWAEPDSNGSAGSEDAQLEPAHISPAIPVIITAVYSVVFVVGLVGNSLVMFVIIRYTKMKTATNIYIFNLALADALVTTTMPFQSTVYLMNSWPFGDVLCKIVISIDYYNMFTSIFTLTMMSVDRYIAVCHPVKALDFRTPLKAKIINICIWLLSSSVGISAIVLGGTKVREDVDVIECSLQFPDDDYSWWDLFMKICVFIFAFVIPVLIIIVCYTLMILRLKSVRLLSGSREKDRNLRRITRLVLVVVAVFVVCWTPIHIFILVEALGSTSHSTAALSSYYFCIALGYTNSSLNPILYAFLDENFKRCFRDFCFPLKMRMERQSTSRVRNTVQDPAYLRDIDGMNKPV

Target: Kappa-type opioid receptor (Homo sapiens, UniProt P41145)
Assay: Agonist activity at human kappa opioid receptor expressed in CHO cells assessed as stimulation of […]GTPgammaS binding after 60 mins by scintillation counting relative to control
Format: functional, cell-based
How it was run: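 Membranes from CHO cells stably expressing human KOR (15 μg protein per tube) or MOR (7.5 μg protein per tube). Nonspecific binding with 10 μM GTPγS. Filtration, then scintillation counting. Triplicate, at least three experiments.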

In the case of CN(C(=O)Cc1ccc(Cl)c(Cl)c1)C1CCCCC1N1CCCC1 (stereo unspecified), the Emax is reported as 140%.
